Test results published in publication PMC9479110.

How the values were obtained:
Assay in all cases: low-speed co-sedimentation, McGhee-von Hippel fit
[1] = biological target: actin filaments (skeletal muscle, long, Cdc12p-bound) (Gallus gallus) (UniProt P68139)
[2] = biological target: actin filaments (skeletal muscle, short, Cdc12p-assembled) (Gallus gallus) (UniProt P68139)
[3] = biological target: actin filaments (skeletal muscle, long, free barbed ends) (Gallus gallus) (UniProt P68139)

Substance: fascin-1 (from UniProt Q16658)
- Kd [1]: 303 nM
- Kd [2]: 431 nM
- Kd [3]: 396 nM
